The values that follow are results of earlier work, collected in article PMC12458545, “Repurposing a Detrimental Antibody Epitope as Targeted Therapeutics for Sepsis and Rheumatoid Arthritis” (Research Square, 2025).

This data set relates to CLP-induced sepsis. Particulars: repetitive buprenorphine use in CLP; cited from earlier work.

As for buprenorphine [reference compound], the “sepsis surrogate markers and lethality” value is “could paradoxically elevate sepsis surrogate markers and increase animal lethality”.
